Data from PubChem BioAssay AID1422 (Emory University Molecular Libraries Screening Center, 2008).
Only a part is listed here, and it is no random draw. Some structures show a salt or complex split into parts, the way the source records it. The source made the active and inactive calls.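 Rule for the calls: active = percent inhibition above 40 after rounding to a whole number; inactive = the rest.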

The chains behind the UniProt entries cited, without tags or fusion partners.
UniProt P43116, whole entry: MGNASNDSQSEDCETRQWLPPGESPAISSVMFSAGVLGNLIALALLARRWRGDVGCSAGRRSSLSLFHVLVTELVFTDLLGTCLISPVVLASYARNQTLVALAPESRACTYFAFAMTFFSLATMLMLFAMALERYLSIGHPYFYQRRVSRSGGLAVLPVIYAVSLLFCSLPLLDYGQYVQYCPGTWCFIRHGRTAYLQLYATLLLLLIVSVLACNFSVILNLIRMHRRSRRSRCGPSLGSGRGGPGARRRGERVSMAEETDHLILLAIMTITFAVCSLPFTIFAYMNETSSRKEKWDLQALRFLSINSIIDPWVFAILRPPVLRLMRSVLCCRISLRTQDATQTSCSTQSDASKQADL

biological target: Prostaglandin E2 receptor EP2 subtype (Homo sapiens) (UniProt P43116); assay: human EP2 receptor antagonists, primary screen, TR-FRET cAMP, C6 glioma cells (AID 1422); settings: C6 glioma cells expressing human EP2, cAMP TR-FRET; at 25 µM; stronger effect = higher value; cells stimulated with saturating PGE2;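 note: rat C6 glioma host cells with rolipram phosphodiesterase inhibitor present; the protocol text gives 20 µM as final concentration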

SMILES	inhibition
CN1CC[C@@H](OC(=O)[C@](O)(c2ccccc2)C2CCCC2)C1	inactive: 13.1%
CP(=O)(Nc1ccccc1F)Oc1ccccc1 (stereo not drawn)	inactive: 7.78%
CC(C)c1ccc(OP(C)(=O)Nc2ccc(SC(F)(F)F)cc2)cc1 (stereo not drawn)	inactive: 3.53%
O=C(OC1CN2CCC1CC2)c1ccc([N+](=O)[O-])cc1 (stereo not drawn)	inactive: 6.81%
O=C(OCCN1CCN(CCOCc2ccccc2)CC1)C(O)(c1ccccc1)c1ccccc1	inactive: 10.9%
COc1ccc2c(c1O)-c1c(O)c(OC)cc3c1[C@H](C2)[N+](C)(C)CC3.O=[N+]([O-])c1cc([N+](=O)[O-])c([O-])c([N+](=O)[O-])c1[O-]	inactive: 16.7%
CCOC(=O)c1ccc(NP(C)(=O)Oc2ccc(F)cc2)cc1 (stereo not drawn)	inactive: 10%
COc1ccc(OP(C)(=O)Nc2ccc(SC(F)(F)F)cc2)cc1 (stereo not drawn)	inactive: 6.78%
CCN(CC)CCCOC(=O)C(O)(c1ccccc1)C1CCCCC1 (stereo not drawn)	inactive: 11.5%
CP(=O)(Nc1ccccc1)Oc1ccc(F)cc1 (stereo not drawn)	inactive: 7.22%
CCCCCOc1ccc(NP(C)(=O)Oc2ccc(Cl)cc2Cl)cc1 (stereo not drawn)	inactive: 5.56%
COc1ccc(OP(C)(=O)Nc2cccc(Br)c2)cc1 (stereo not drawn)	inactive: 13.1%
CN(C)CCOC(=O)C(O)(c1ccccc1)C1CCCCC1 (stereo not drawn)	inactive: 5.3%
COc1ccc(NP(C)(=O)Oc2ccccc2OC)cc1 (stereo not drawn)	inactive: 5.21%
O=[N+]([O-])c1ccc(OP2(=O)COCCO2)cc1 (stereo not drawn)	inactive: 3.1%
O=[N+]([O-])c1cc([N+](=O)[O-])c(NCC2CCS(=O)(=O)C2)c([N+](=O)[O-])c1 (stereo not drawn)	inactive: 5.87%
Cc1cc(-c2cccc3ccccc23)c(C)cn1.O=[N+]([O-])c1cc([N+](=O)[O-])c(O)c([N+](=O)[O-])c1	inactive: 6.94%
CP(=O)(Nc1ccc(SC(F)(F)F)cc1)Oc1ccc(F)cc1 (stereo not drawn)	inactive: 7.67%
CCOP(C)(=S)SCC(=O)NC(C)(CC)C(=O)O (stereo not drawn)	inactive: 9.02%
CP(=O)(Nc1ccc2c(c1)OCCO2)Oc1ccccc1 (stereo not drawn)	inactive: 9.48%
Cc1ccccc1NP(C)(=O)Nc1ccccc1C	inactive: 6.72%
NNC(NN)NN.n1nc(-c2nn[nH]n2)n[nH]1	inactive: 12.1%

SMILES	inhibition
CCN(CC)CC(O)COC(=O)C(O)(c1ccccc1)C1CCCCC1 (stereo not drawn)	inactive: 6.64%
COc1ccc(OP(C)(=O)Nc2ccc(Br)cc2)cc1 (stereo not drawn)	inactive: 4.69%
N#[O+].[C-]#N.[C-]#N.[C-]#N.[C-]#N.[C-]#N.[Fe+2].[Na+].[Na+]	inactive: 11.3%
COc1ccccc1OP(C)(=O)Nc1c(C)n(C)n(-c2ccccc2)c1=O (stereo not drawn)	inactive: 9.76%
O=C(OCCCN1CCCC1)C(O)(c1ccccc1)C1CCCCC1 (stereo not drawn)	inactive: 5.46%
OCCSCCO	inactive: 11.7%
CP(=O)(Oc1ccccc1)N1CCOC1=O (stereo not drawn)	inactive: 25.8%
CCc1ccc(OP(C)(=O)Nc2cccnc2)cc1 (stereo not drawn)	inactive: 6.82%
CC(C)(C)c1ccc(OP(C)(=O)O)cc1	inactive: 9.29%
COc1ccccc1OP(C)(=O)Nc1ccccc1Br (stereo not drawn)	inactive: 3.62%
CP(=O)(Nc1ccc(Cl)cc1)Oc1ccc(F)cc1 (stereo not drawn)	inactive: 21.6%
CN(C)C(=O)c1c([N+](=O)[O-])cc([N+](=O)[O-])cc1[N+](=O)[O-]	inactive: 9.97%
CCOC(=O)c1ccc(NP(C)(=O)Oc2ccc(Cl)cc2)cc1 (stereo not drawn)	inactive: 16.6%
CP(=O)(OC12CC3CC(CC(C3)C1)C2)OC12CC3CC(CC(C3)C1)C2	inactive: -1.59%
Cc1cc(C)cc(OP(C)(=O)Nc2cccc(C(F)(F)F)c2)c1 (stereo not drawn)	inactive: 11.1%
COc1ccccc1OP(C)(=O)Nc1ccc(C)c(C)c1 (stereo not drawn)	inactive: 16.5%
COc1ccc(OP(C)(=O)Nc2ccccc2Br)cc1 (stereo not drawn)	inactive: 6.87%
Cc1nc2ccc3ccccc3c2o1.O=[N+]([O-])c1cc([N+](=O)[O-])c(O)c([N+](=O)[O-])c1	inactive: 3.27%
CP(=O)(OCCOc1ccccc1)OCCOc1ccccc1	inactive: 4.68%
[Au].[Au].c1ccc([PH+](c2ccccc2)c2ccccc2)cc1.c1ccc([PH+](c2ccccc2)c2ccccc2)cc1.n1n[n-]c(-c2nnn[n-]2)n1	active: 67.3%
CP(=O)(Nc1ccc(Cl)cc1Cl)Oc1ccccc1 (stereo not drawn)	inactive: -0.16%
COc1ccccc1OP(C)(=O)Nc1ccc(Br)cc1 (stereo not drawn)	inactive: 4.77%

SMILES	inhibition
COc1ccc(OP(C)(=O)Nc2ccccn2)cc1 (stereo not drawn)	inactive: 5.96%
CN(C)CCOC(=O)C(O)(c1ccccc1)C1CCCC1 (stereo not drawn)	inactive: 8.51%
O=[N+]([O-])c1cc([N+](=O)[O-])c(Nc2ccccn2)c([N+](=O)[O-])c1	inactive: 9.66%
Cc1c(NP(C)(=O)Oc2ccc(C(C)C)cc2)c(=O)n(-c2ccccc2)n1C (stereo not drawn)	inactive: 9.91%
CP(=O)(Nc1ccccn1)Oc1ccccc1 (stereo not drawn)	inactive: 6.73%
COc1ccccc1OP(C)(=O)Nc1ccc(C)cc1C (stereo not drawn)	inactive: 8.9%
CCc1ccc(OP(C)(=O)O)cc1	inactive: 7.59%
CCN(CC)CCCOC(=O)C(O)(c1ccccc1)c1ccccc1	inactive: 6.93%
O=[N+]([O-])c1ccc2c(c1)C=Nc1ccccc1O2	inactive: 2.67%
CC(C)(C)c1ccc(OP(C)(=O)Nc2ccc(SC(F)(F)F)cc2)cc1 (stereo not drawn)	inactive: 6.39%
Cc1cccc(C)c1OP(C)(N)=O (stereo not drawn)	inactive: 5.44%
COc1ccccc1OP(C)(=O)Nc1ccc(C)cc1 (stereo not drawn)	inactive: 15.1%
CCOC(=O)c1ccc(NP(C)(=O)Oc2ccccc2)cc1 (stereo not drawn)	inactive: 15.2%
Cc1cc(C)cc(OP(C)(N)=O)c1 (stereo not drawn)	inactive: -0.21%
COc1ccccc1OP(C)(=O)Nc1cc(Cl)ccc1C (stereo not drawn)	inactive: 11.3%
N1=C(c2nnc(-c3nn[nH]n3)nn2)NNN1	inactive: 16%
CP(=S)(Nn1cnnc1)Oc1ccccc1 (stereo not drawn)	inactive: 12.2%
CP(=O)(Nc1ccccc1Br)Oc1ccccc1 (stereo not drawn)	inactive: 14.4%
COc1ccccc1OP(C)(=O)Nc1ccccc1 (stereo not drawn)	inactive: 7.69%
CP(=O)(Nc1ccc(SC(F)(F)F)cc1)Oc1ccc(Cl)cc1 (stereo not drawn)	inactive: 11.8%
Cc1cccc(C)c1OP(C)(=O)Nc1ccc(SC(F)(F)F)cc1 (stereo not drawn)	inactive: 4.98%
CP(=O)(Oc1ccccc1)OC(c1ccccc1)C(F)(F)F (stereo not drawn)	inactive: 1.07%

SMILES	inhibition
CCc1ccc(OP(C)(=O)N2CCN(c3ccc([N+](=O)[O-])cc3)CC2)cc1 (stereo not drawn)	inactive: 11.7%
CP(=O)(NC(=O)Nc1ccccc1)Oc1ccccc1 (stereo not drawn)	inactive: 7.57%
Cc1cc(C)cc(OP(C)(=O)Nc2ccc(SC(F)(F)F)cc2)c1 (stereo not drawn)	inactive: 7.04%
CCOC(=O)c1ccc(NP(C)(=O)Oc2ccc(OC)cc2)cc1 (stereo not drawn)	inactive: 3.81%
CCOP(C)(=S)SCC(=O)NC(C)C(=O)O (stereo not drawn)	inactive: 7.3%
CP(=O)(Nc1ccccn1)Oc1ccc(Cl)cc1 (stereo not drawn)	inactive: 13%
O=[N+]([O-])c1cc([N+](=O)[O-])c(-n2nnc3ccccc32)c([N+](=O)[O-])c1	inactive: 15%
Cc1nc2ccc3ccccc3c2s1.O=[N+]([O-])c1cc([N+](=O)[O-])c(O)c([N+](=O)[O-])c1	inactive: 15.6%
O=[N+]([O-])c1cc([N+](=O)[O-])c(Nc2nnnn2CCO)c([N+](=O)[O-])c1	inactive: 4.44%
CCOC(=O)C(CC)C1=NC(C)(C)Cc2ccccc21.O=[N+]([O-])c1cc([N+](=O)[O-])c(O)c([N+](=O)[O-])c1 (stereo not drawn)	inactive: 8.41%
CN1CCCCC1COC(=O)C1(O)c2ccccc2CCc2ccccc21 (stereo not drawn)	inactive: 1.89%
COc1ccccc1OP(C)(=O)Nc1c(C)cccc1C (stereo not drawn)	inactive: 9.44%
CP(=O)(Nc1ccc(SC(F)(F)F)cc1)Oc1ccccc1 (stereo not drawn)	inactive: 14.1%
CCCOc1ccc(NP(C)(=O)Oc2ccc(Cl)cc2)cc1 (stereo not drawn)	inactive: 6.57%
O=C(O)c1cccc(Nc2c([N+](=O)[O-])cc([N+](=O)[O-])cc2[N+](=O)[O-])c1	inactive: 1.16%
CC1=NCCc2c1[nH]c1ccccc21.O=[N+]([O-])c1cc([N+](=O)[O-])c(O)c([N+](=O)[O-])c1	inactive: 6.64%
COc1ccccc1OP(C)(=O)Nc1cccc(Br)c1 (stereo not drawn)	inactive: 4.14%
CCOC(=O)c1ccc(NP(C)(=O)Oc2cc(C)cc(C)c2)cc1 (stereo not drawn)	inactive: 8.26%
Cc1cc(C)cc(OP(C)(=O)Nc2ccc(C)cc2C)c1 (stereo not drawn)	inactive: 2.67%
Cc1ccc(C)c(NP(C)(=O)Oc2ccccc2)c1 (stereo not drawn)	inactive: 8.17%
CP(=O)(Nc1cccc(Br)c1)Oc1ccccc1 (stereo not drawn)	inactive: 9.14%
Cc1cc(C)cc(OP(C)(=O)Nc2ccccn2)c1 (stereo not drawn)	inactive: 27.3%
